The source of these data is patent US8415367B2, “Pyrimidinylpiperidinyloxypyridinone analogues as GPR119 modulators” (Bristol-Myers Squibb Company, priority 2010, dated 2013).

Amino acid sequences for entries named in this document (tags omitted). Chains listed by the source or under a name are the forms on record and can include a tag or linker. Residues count along the entry.
UniProt Q8TDV5, 1-329 with tags or gaps with the stated changes limits assumed: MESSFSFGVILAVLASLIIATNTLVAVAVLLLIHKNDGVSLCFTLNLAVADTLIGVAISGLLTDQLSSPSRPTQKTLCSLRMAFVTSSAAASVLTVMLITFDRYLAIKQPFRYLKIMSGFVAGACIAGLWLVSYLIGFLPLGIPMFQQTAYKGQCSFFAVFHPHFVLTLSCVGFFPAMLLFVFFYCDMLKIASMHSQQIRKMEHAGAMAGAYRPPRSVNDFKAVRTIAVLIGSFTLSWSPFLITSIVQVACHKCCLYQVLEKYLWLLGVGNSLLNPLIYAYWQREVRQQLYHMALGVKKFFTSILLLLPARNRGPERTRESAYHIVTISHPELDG

Data set [1] deals with human-mouse chimeric GPR119 (Homo sapiens, UniProt Q8TDV5, A235T/C313R/C323Y/E253K/F304I/F307L/G211A/G245S/H255C/K284R/L224V/L258Q/L288Q/L301F/P218V/P318T/Q252H/R262K/S214P/S219N/S228A/S309P/S322A/T217S/T239S/V227I/V300F). Kind of data set: Tet-inducible cAMP assay (cAMP accumulation, HTRF). To be noted: read-out: GPR119 EC50, Flp-In-T-Rex-HEK293 cells expressing chimeric human/mouse GPR119, tested form: TFA. For orientation: Cyclic AMP is a second messenger, typically raised through Gs and lowered through Gi signalling.

Data set [2] in a line: Metabolic stability in liver microsomes test. To be noted: tested form: TFA. In general terms: Liver microsomes are a subcellular fraction often used to study metabolism.
For data set [3], the system named is male C57BL/6J mice. As to the kind of experiment: Mouse oral glucose tolerance test. To be noted: tested form: TFA. The method, then: Mouse Oral Glucose Tolerance Test
Twenty four (24) male C57BL/6J mice (8-10 weeks old, average weight 28 g) were randomized into 4 groups (1 mouse/cage) of 6 mice per group based on fed plasma glucose and body weight. Prior to initiating the study, mice were fasted overnight and the next morning they were weighed and placed in the experimental lab. After 30 min in the environment, the mice were bled via tail tip at −60 min and immediately given their first oral administration of vehicle (40% PEG400, 10% Cremophor EL, 50% water) or compound solutions (5 ml/kg). At time 0 the mice were bled and given 50% glucose (2 g/kg) to initiate the oral glucose tolerance test (oGTT). The mice were bled 30, 60 and 120 min after the glucose load. Blood samples were drawn into potassium EDTA, placed on ice during the study and subsequently centrifuged for 10 min at 3000 rpm at 4° C. Plasma samples were diluted 11-fold for glucose analysis in the COBAS MIRA® System (Roche Diagnostics). Area under the curve was calculated from the plasma glucose time course data using the trapezoid rule with fasting plasma glucose as the baseline (GraphPad Prism Software). The statistical significance of the changes in the glucose AUCs resulting from the different treatments was determined by one-way ANOVA followed by Dunnett's test using the vehicle group as the control (JMP software, release 5.1.2).
Find below in Table 6 data for compared compounds (See WO 2009/012275 A1).

With `CCCc1cnc(N2CCC(Oc3cc(=O)n(-c4ccc(S(C)(=O)=O)c(F)c4)cc3Cl)CC2)nc1`, the EC50 in data set [1] stood at 4 nM. For the same molecule, in data set [2] (human liver microsome half-life ratio), the “times less stable (half-life) than Example 1 of the present invention” value is 45 times. Moreover, the “Human Liver Microsome Half-life” value in data set [2] (human liver microsomes, NADPH, 37° C., 0.5 μM compound) stood at 4 min. This molecule gave a reduction in glucose in data set [3] (at the stated dose (0.1 mg/kg Example 1; 0.3 mg/kg Example 224 of WO 2009/012275 A1)) of 30%. In addition, the “Minimally efficacious Dose” value in data set [3] (oral, given 60 min before glucose load (2 g/kg), oGTT in C57BL/6J mice) was determined as 0.3 mg/kg. Besides, the “Glucose Lowering” value in data set [3] (plasma glucose AUC change vs vehicle at the minimally efficacious dose, oral) is on record as −30%. In addition, in data set [3] (ratio of doses 0.3 mg/kg vs 0.1 mg/kg), the “times less effective in reducing glucose than Example 1 of the present invention” value is “three”.
